Source: ChEMBL document CHEMBL2169867, “Novel β-amino acid derivatives as inhibitors of cathepsin A” (J Med Chem, 2012)

Molecular target: T1, Lysosomal protective protein (Homo sapiens, UniProt P10619)
T1 sequence (P10619 whole entry): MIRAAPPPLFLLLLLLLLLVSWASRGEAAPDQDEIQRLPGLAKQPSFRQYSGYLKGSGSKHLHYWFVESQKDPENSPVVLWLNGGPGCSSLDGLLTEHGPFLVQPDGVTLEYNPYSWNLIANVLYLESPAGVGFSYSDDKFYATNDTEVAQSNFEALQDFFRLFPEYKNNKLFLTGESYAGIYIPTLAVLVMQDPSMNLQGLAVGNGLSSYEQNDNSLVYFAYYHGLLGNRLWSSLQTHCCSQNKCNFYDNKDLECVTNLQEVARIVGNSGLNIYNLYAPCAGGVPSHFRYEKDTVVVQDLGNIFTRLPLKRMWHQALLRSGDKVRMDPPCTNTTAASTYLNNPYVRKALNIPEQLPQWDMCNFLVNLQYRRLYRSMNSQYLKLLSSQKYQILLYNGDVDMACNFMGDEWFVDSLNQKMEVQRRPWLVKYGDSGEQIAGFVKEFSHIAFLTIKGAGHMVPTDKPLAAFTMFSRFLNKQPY
Test: Inhibition of human recombinant Myc-His10-tagged cathepsin A expressed in baculovirus infected Sf9 cells using BodipyFL labeled bradykinin as substrate incubated for 15 mins prior to substrate addition measured after 15 mins by fluorimetric analysis

IC50: 5 nM
SMILES: Cc1ccccc1[C@H](CC(=O)O)NC(=O)c1cc(OC[C@H](O)C(C)(C)C)n(-c2ccccc2F)n1
